Patent US9598424B2 (Takeda Pharmaceutical Company Limited, priority 2014, dated 2017)

Chains of the proteins cited; added tags and fusions are not shown.
UniProt Q9UHD2, whole entry: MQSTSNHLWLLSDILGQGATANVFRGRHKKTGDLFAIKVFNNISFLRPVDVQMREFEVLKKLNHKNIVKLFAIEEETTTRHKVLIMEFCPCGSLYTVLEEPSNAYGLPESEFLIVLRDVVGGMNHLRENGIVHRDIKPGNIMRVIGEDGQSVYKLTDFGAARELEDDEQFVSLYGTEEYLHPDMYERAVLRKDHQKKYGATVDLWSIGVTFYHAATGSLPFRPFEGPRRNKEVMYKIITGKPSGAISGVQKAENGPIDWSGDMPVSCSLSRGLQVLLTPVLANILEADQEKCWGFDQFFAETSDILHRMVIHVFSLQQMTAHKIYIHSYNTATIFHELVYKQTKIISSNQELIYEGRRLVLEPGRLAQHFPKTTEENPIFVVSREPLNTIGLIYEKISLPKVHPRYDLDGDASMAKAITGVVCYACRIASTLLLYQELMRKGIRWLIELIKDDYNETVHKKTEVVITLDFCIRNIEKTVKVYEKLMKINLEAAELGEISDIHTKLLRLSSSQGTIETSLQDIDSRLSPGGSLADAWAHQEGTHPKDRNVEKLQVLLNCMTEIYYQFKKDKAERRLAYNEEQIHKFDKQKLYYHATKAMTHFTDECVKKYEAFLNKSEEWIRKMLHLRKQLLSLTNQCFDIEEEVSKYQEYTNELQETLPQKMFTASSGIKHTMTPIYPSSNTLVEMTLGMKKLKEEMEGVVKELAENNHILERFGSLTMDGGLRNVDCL

What was measured:
Full length human TBK1 = Full length human TBK1 (Homo sapiens, UniProt Q9UHD2); test: Inhibition of TBK1 Enzyme (Caliper microfluidic assay); settings: 25 μM ATP, 60 min at RT; -log(IC50), IC50 molar; tested form: TFA
Protocol: Full length human TBK1 with an N-terminal His-tag was cloned into the pFastBacl vector and was transfected into Sf9 cells. 72 hours later the virus was harvested and amplified through two additional rounds of infections. Then 400 ml of the resulting virus stock was used to infect 10L of Sf9 cells at a density of 2×10^6 cells/ml. Cell pellets were harvested 48 hours post infection and were lysed by freeze-thaw, homogenization and sonication in binding buffer (25 mM Tris pH7.6, 1 M NaCl, 10 mM imidazole, 0.5 mM TCEP) plus 0.1% Triton X-100 and complete protease inhibitor cocktail. The lysate was spun and the supernatant was purified with a HisTrap FF crude and a Superdex 200 pg column.
TBK1 inhibition is determined using a 384 well plate format in buffer containing 20 mM Hepes, pH 7.4, 10 mM MgCl2, 1 mM EDTA, 0.01% Brij-L23, 1 mM DTT. Each test compound is prepared in DMSO using 2.5-fold serial dilutions for 11 data points, which are added to the buffer so that each dilution contains 1% DMSO. To each well is added 2 μL of 1 μm 5FAM-DRHDSGLDSMKDE-NH2 (in buffer), 2 μL of diluted test compound (1% DMSO in buffer), and 5 μL of 3 nM TBK1 and 25 μM ATP (in buffer). The reaction mixture is incubated at RT for 60 min, and quenched by adding 20 mM Hepes, pH 7.4, 10 mM MgCl2, 1 mM EDTA, 0.01% Brij-L23, 1 mM DTT+25 mM EDTA. To quantify the fluorescent-labeled substrate and product following reaction, the test plate is loaded on a Caliper LC-3000, which measures percent of conversion by microfluidic-based separation. Corresponding IC50 values are calculated by non-linear curve fitting of the compound concentrations and percent of inhibition to the standard IC50 equation and reported as pIC50, i.e., −log(IC50), where IC50 is the molar concentration.

TBK1 = TBK1 (Homo sapiens, UniProt Q9UHD2); test: Inhibition of TBK1 in Cells (TLR3 driven ISRE β-lactamase reporter assay); settings: poly IC-LMW stimulation 16 hrs; -log(EC50), EC50 molar; tested form: TFA
Protocol: TBK1 inhibition is determined using a TLR3 driven RA1-ISRE β-lacatamase reporter assay (Life Technologies). In the assay 50,000 cells/well are plated in black clear bottom 384 well plate. Each test compound is prepared in DMSO using 2.5-fold serial dilutions for 11 data points, which are then added to the media. Cells are stimulated with 0.15 mg/ml poly IC-LMW (Invivogen) for 16 hrs. Reporter activity is detected using the LiveBLAzer-FRET B/G CCF4-AM substrate (Life Technologies) and the plate is read using the Spectramax M5 instrument. Corresponding EC50 values are calculated by non-linear curve fitting of the compound concentrations and percent of inhibition to the standard EC50 equation and reported as pEC50, i.e., −log(EC50), where EC50 is the molar concentration.

SMILES | TBK1 Inhibition (pIC50) (Full length human TBK1) | Inhibition of TBK1 in cells pEC50 (EC) (TBK1)
O=C(Nc1cn2cc(-c3csc(C(=O)N4CCC[C@@H]4C(F)(F)F)n3)ncc2n1)C1CC1 | 7.2 | 7.06
O=C(N[C@H]1CCCC[C@H]1O)c1nc(-c2cn3cc(NC(=O)C4CC4)nc3cn2)cs1 | 7.4 | 5.90
O=C(N[C@H]1CCCOC1)c1nc(-c2cn3cc(NC(=O)C4CC4)nc3cn2)cs1 | 7.3 | 5.70
O=C(N[C@H]1CCOC1)c1nc(-c2cn3cc(NC(=O)C4CC4)nc3cn2)cs1 | 7.1 | 5.50
